Test results as given in patent US20260125669A1, “METHODS AND COMPOSITIONS FOR SYNTHETIC EVOLUTION” (U[…] FABRA, priority 2022, published 2026).

Tested on: lentiviral payload (GFP gene)
Experiment: drug-induced mutagenesis: nucleoside analogs added to producer cells during lentiviral vector production
Format: cell-based
Protocol: Cells were produced in 10-cm dishes seeded with 4.9×10^6 HEK293T cells a day prior transfection using 0.72 pmol of pCMV-VSV-G envelope plasmid, 1.64 pmol of pSICO or pRRL vector payloads (transfer plasmid) and 1.30 pmol psPAX2 plasmid or psPAX2 mutants. Plasmids were mixed in 500 μL Optimem and 100 mg polyethyleneimine (PEI).
10 μL of vector were used for infecting HEK293T cells at an approximate MOI of 1. Genomic DNA of infected cells was extracted 48 hours post-infection using the DNeasy Blood & Tissue Kit (Qiagen's ref. 69504) and the sequence of interest to be evolved was amplified and sequenced with an Illumina Miseq 2×250PE sequencer.
For assessing drug-induced mutagenesis, 5-azacytidine (Sigma's ref. A2385-100MG) or 5-hydroxydeoxycytidine (5-OH-dC) was added to the cells at different doses and sequenced as described below.
A first tested aspect was the addition, in the producer cells, of the nucleoside analogs 5-azacytidine (5-aza-C) and 5-hydroxydeoxycytidine (5-OH-dC), which were described in the art to increase the viral reverse transcriptase error rate.

Nc1ncn([C@@H]2O[C@H](CO)[C@@H](O)[C@H]2O)c(=O)n1 [5-aza-C, 5-azacytidine]
functionality of the GFP gene (5-10 mM in the producer cells): near-complete loss of functionality of the GFP gene
effect on the viral titter (added in the producer cells, FIG. 3): had an effect
